Measurements published in US20160250221A1, “INHIBITORS OF FAPP2 AND USES THEREOF” (FONDAZIONE TELETHON, priority 2013, published 2016).

Molecular target: T1, FAPP2-HIS-SUMO-C-212 (Homo sapiens, UniProt Q96JA3)
T1 construct: the recombinant FAPP2 protein is FAPP2-GLTP-C212 or FAPP2 Full-Length (FL)
T1 sequence (Q96JA3 310-519 limits assumed): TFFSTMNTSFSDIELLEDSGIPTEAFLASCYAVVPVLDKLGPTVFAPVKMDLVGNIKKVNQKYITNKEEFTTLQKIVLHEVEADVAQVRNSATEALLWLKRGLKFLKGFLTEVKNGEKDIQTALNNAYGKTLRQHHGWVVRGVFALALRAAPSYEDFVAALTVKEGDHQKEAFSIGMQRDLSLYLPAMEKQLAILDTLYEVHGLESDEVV
Assay: FRET GlcCer transfer assay with FAPP2-C212 (384-well)
Assay type: biochemical
Method: FAPP2 transfer activity has been evaluated using Fluorescence Resonance Energy Transfer. The FRET assay involves mixing of acceptor vesicles (formed by sonication of 1,2-dioleoyl-sn-glycero-3-phosphocholine (DOPC) suspended in buffer) with donor vesicles containing TopFLUOR-labeled GlcCer (1 mole %) and Di1C18 used as quencher (3 mole %), and recombinant FAPP2 protein (0.5 uM). Recovery of emission intensity at 520 nm (excitation at 485 nm) occurs during FAPP2-mediated transfer of GlcosylCeramide from quenched donor vesicles to unquenched acceptor vesicles. The assay has been performed using FAPP2-GLTP-C212 or FAPP2 Full-Length (FL). In order to conduct the high throughput inhibitor screen, the transfer activity assay was adapted to a microplate format (384 well plate) and read using Synergy Neo HTS Multi-Mode Microplate Reader. First, mixture containing 30 ul of acceptor small unilamellar vesicles, FAPP2 transport protein, and drug in buffer was added to each well in triplicate and read for 1 min to calculate the fluorescence baseline. Then 30 ul donor vesicles were added to each well and read for 15 or 30 mins. Since the increase in fluorescence emission occurs exclusively in presence of FAPP2 transport, the inhibition rate of each compound is evaluated by its ability to decrease the fluorescence emission.

Cc1ccc(-c2ccc(F)cc2COc2ccc(CCC(=O)O)cc2)cc1 [TUG-891]
inhibition of FAPP2 transfer activity: 50%
